Target: human GLP-1 receptor (GLP-1R) (human) (UniProt P43220)
Assay: cell-based or functional assay
Settings: scale: times higher concentration than the active forms of GLP-1

Protein sequences, listed by entry. Tags and fused reporters are not part of them. Residues count along the entry.
UniProt P43220, 24-463 limits assumed: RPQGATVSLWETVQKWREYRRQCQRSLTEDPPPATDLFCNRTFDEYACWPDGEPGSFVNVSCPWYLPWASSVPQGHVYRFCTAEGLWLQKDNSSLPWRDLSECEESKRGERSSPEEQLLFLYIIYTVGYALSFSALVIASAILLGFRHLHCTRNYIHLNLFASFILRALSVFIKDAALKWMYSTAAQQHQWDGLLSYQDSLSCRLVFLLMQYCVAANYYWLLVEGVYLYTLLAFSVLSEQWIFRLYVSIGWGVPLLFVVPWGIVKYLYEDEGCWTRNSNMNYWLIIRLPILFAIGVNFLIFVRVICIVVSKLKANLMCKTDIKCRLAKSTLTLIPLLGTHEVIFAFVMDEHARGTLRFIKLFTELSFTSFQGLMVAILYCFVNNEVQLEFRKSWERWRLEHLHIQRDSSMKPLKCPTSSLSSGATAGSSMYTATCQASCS

reactivity of the kit (aequorin luminescence), concentration relative to the active forms of GLP-1: 10000
Substance: oxyntomodulin (from UniProt P01275 53-89) (peptide)
